# Yeast mating assay 2: variants of the scFv Ab-91

Reference: Engelhart et al. 2022, doi:10.1038/s41597-022-01779-4. File: FLAb, binding data.

Antigen: PDVDLGDISGINAS, a 14-residue peptide of the SARS-CoV-2 spike HR2 region.

Ab-91 is the parent antibody, in scFv form: VL, then the linker GGGGSGGGGSGGGGS, then VH. The light chain is unchanged in all variants.
VL: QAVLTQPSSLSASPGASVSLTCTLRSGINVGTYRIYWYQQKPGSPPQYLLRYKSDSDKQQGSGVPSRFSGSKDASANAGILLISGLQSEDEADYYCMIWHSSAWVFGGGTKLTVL
VH: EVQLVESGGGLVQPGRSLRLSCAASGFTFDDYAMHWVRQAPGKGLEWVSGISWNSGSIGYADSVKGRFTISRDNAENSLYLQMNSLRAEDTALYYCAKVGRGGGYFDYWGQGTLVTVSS

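Phage display of a naive human antibody library on the peptide gave the parent. Library AAYL51 holds single substitutions and randomly drawn double and triple substitutions in the CDRs. In AlphaSeq, yeast of one mating type display the scFv and yeast of the other type display the target. Pairs that bind mate more often; barcode pairs of the diploids are counted by sequencing. The ratio of observed to expected reads was calibrated, replicate by replicate, on BCL2-family standards whose Kd was known from biolayer interferometry. Each pool was mated in three replicate cultures.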

Each variant is given by its three heavy chain CDRs, as the data file delimits them; those of the parent are GFTFDDYAMH, GISWNSGSIGYADSVK, VGRGGGYFDY.
Numbers give log10(Kd / nM), so 0 is 1 nM and 3 is 1 µM. Smaller is tighter.
Averages over replicates are reported, and they cover detected replicates only.
"n.d." means that the variant was in the library but no mating with the target was seen in that replicate; the authors take this as a sign of poor binding, and no number exists.
Three control strains display no target. For library AAYL51, 21% of the pairings with them gave a signal, with a median of 4.54 and one signal in twenty below 3.26, so weak values seen in few replicates may be background. For each scFv, signals with the empty controls are counted beside the result, with their mean in brackets.

CDR-H1 | CDR-H2 | CDR-H3 | log10 Kd (nM) by replicate | mean log10 Kd (nM) | control signals
GFTFDDYAMI | GIDWNSGEIGYADSVK | VGRGGGYFDY | n.d. n.d. n.d. | n.d. | 0/9
GFTFDDYAMH | GISWNSGSIGYADSVD | DGRGGGYVDY | n.d. n.d. n.d. | n.d. | 0/9
GFTFDDYAMH | GTSWNSGSIGYQVSVK | VGRGGGYFDY | n.d. n.d. n.d. | n.d. | 0/9
GFTFDDYAMH | GISWNSGSIGYADEVK | VGRGGGKFDH | n.d. 3.02 n.d. | 3.02 | 0/9
GFTFDDYAMH | GISWNSGSIGYALSVK | VGRSGGYFDY | 4.44 n.d. n.d. | 4.44 | 3/9 (4.13)
GFTFDDYAMH | GSSWNSGSIGYEDSVK | FGRGGGYFDY | n.d. n.d. 4.68 | 4.68 | 3/9 (4.72)
GVTFDDYAMH | GISWNSGSIGYSDSVK | VGRGGGYFDH | n.d. n.d. n.d. | n.d. | 0/9
GQTFDDYAMH | GISWNSGSIGYADGVK | VGRGGGYFDY | 5.48 n.d. n.d. | 5.48 | 2/9 (4.16)
GFTFDDYAMH | GISWNSGSIGYADSYK | VGRGKGYFDY | 2.25 1.87 1.67 | 1.93 | 3/9 (4.01)
GKTFDDYAMH | GISWNSGSIGYADSVK | VGRGGGYFYY | n.d. 5.67 n.d. | 5.67 | 3/9 (5.08)
GFTFDDYAMH | GISRNSTSIGYADSVK | VTRGGGYFDY | 5.12 n.d. n.d. | 5.12 | 1/9 (4.46)
GFTFDDQAMH | GISWNIGSIGYADSVK | VGRGGEYFDY | n.d. n.d. n.d. | n.d. | 1/9 (3.15)
GFEFDDRAMH | GHSWNSGSIGYADSVK | VGRGGGYFDY | n.d. n.d. n.d. | n.d. | 5/9 (4.31)
GFTFDDLAMH | GTSWNSGSIGYHDSVK | VGRGGGYFDY | n.d. n.d. n.d. | n.d. | 0/9
GFTFDDYAMH | GESWNSGSIGYADSVE | VGRGGGYFDI | n.d. 4.48 n.d. | 4.48 | 2/9 (4.19)
CFTFDDYAEH | GISWNSGSIGYADSVK | IGRGGGYFDY | n.d. 5.18 n.d. | 5.18 | 0/9
GMTFDDYAMH | GISWNSGSDPYADSVK | VGRGGGYFDY | n.d. n.d. 5.10 | 5.10 | 2/9 (5.55)
GFTFDDYAMY | GISWNSGSIGYADSVD | VGRGGGYFDY | n.d. n.d. n.d. | n.d. | 3/9 (4.48)
GFTFDDYAMH | GISWNSGSIGYADSPK | VGRGGNYFDY | 3.23 n.d. n.d. | 3.23 | 2/9 (4.47)
FFTFDDYAMH | GISWNSGSIGYADSVK | VGRCGGYYDY | 4.62 5.80 n.d. | 5.21 | 3/9 (3.83)
GFTFDDYAMH | GISWNSGFIGYADSVK | VHAGGGYFDY | n.d. n.d. n.d. | n.d. | 1/9 (3.63)
GFTFDDYAMH | YISWNSGSIGYADSVK | VVGGGGYFDY | n.d. n.d. n.d. | n.d. | 0/9
GFTFDDYAMH | GYSWNSGSIGYYDSVK | VGRGGGYFDY | 4.04 4.09 n.d. | 4.06 | 4/9 (4.14)
GFTFDDYAMH | GISWNSGSIGYADGVH | VGRGGGYWDY | n.d. n.d. n.d. | n.d. | 0/9
GFTFDDYAMH | GISLNSGSIGYADSVN | VGPGGGYFDY | 1.45 1.82 1.42 | 1.57 | 1/9 (4.52)
GFTFDDYAMH | GISWNSSSIGYADSVK | VGRGGGYVDY | n.d. 3.97 n.d. | 3.97 | 0/9
GFTFDDYAMH | GISWNSGSIGYAYYTK | VGRGGGYFDY | n.d. n.d. n.d. | n.d. | 0/9
GFTFDKYAMH | GISWNSGSLGYADSVK | VGRGGGYADY | n.d. 3.58 n.d. | 3.58 | 2/9 (4.38)
GFTFDDYAMH | GISMNSGSIGYASSVK | VGRGGGYFDS | 0.64 0.64 -0.07 | 0.40 | 6/9 (4.71)
GFFFDDYAMH | GILWNSGSIGYADSVK | VGRGGGYMDY | n.d. 3.87 n.d. | 3.87 | 5/9 (4.10)
GFTPDDYAMH | GISWNSGCIGYADSLK | VGRGGGYFDY | n.d. 4.27 n.d. | 4.27 | 3/9 (4.13)
GATFDDYAMH | DISWNSGSIGDADSVK | VGRGGGYFDY | n.d. n.d. n.d. | n.d. | 2/9 (4.12)
GFTADDYAMH | GISWNSGSICYADSVK | VGRGGGYFDY | 4.04 n.d. 4.88 | 4.46 | 4/9 (4.37)
GFTFDDYAMH | GISWNSGSLGYADSVK | KGRGGGLFDY | n.d. n.d. n.d. | n.d. | 1/9 (5.06)
GFTTDDLAMH | GISWNSGSIGYADSVK | VGRGGHYFDY | n.d. n.d. n.d. | n.d. | 1/9 (3.50)

The last 3 entries again:

CDR-H1	CDR-H2	CDR-H3	log10 Kd (nM) by replicate	mean log10 Kd (nM)	control signals
GFTADDYAMH	GISWNSGSICYADSVK	VGRGGGYFDY	4.04 n.d. 4.88	4.46	4/9 (4.37)
GFTFDDYAMH	GISWNSGSLGYADSVK	KGRGGGLFDY	n.d. n.d. n.d.	n.d.	1/9 (5.06)
GFTTDDLAMH	GISWNSGSIGYADSVK	VGRGGHYFDY	n.d. n.d. n.d.	n.d.	1/9 (3.50)